Test results published in patent US8933096B2, “Antimicrobial agents” (Rugers, The State University of New Jersey, priority 2010, dated 2015).

Legend:
[1] = system: methicillin-Sensitive Staphylococcus aureus (MSSA); test: Test C: planktonic antibacterial broth microdilution assay (MIC) vs MSSA; type: cell-based; details: read-out: MIC vs MSSA
Procedure: (§1) Test C. Planktonic (Free-Living) Antibacterial Assay.
(§2) Planktonic antibacterial activity can be determined using a broth microdilution assay in which log-phase bacteria are grown at 37° C. in appropriate medium containing two-fold serial dilutions of a compound to yield a final concentration ranging from 256 to 0.1 μg/ml. For determination of minimal inhibitory concentration (MIC) values, bacterial growth is monitored after 24 to 48 hours by measuring optical density at 600 nm.

[2] = system: MRSA; test: Test C: planktonic antibacterial broth microdilution assay (MIC) vs MRSA; type: cell-based; details: Staphylococcus aureus, read-out: MIC vs MRSA
Procedure: as §1, §2

| Structure (SMILES) | MIC [1] [µg/mL] | MIC [2] [µg/mL] |
| --- | --- | --- |
| COc1cc2cc(-c3cccc(-c4ccc(C(C)(C)C)cc4)c3)nc(CN=C(N)N)c2cc1OC [Example 10] | ≤ 8 | ≤ 8 |
| COc1cc2cc(-c3cccc(-c4cccc(C(C)(C)C)c4)c3)nc(CN=C(N)N)c2cc1OC [Example 11] | ≤ 8 | ≤ 8 |
| COc1cc2cc(-c3cccc(-c4ccccc4)c3)nc(CN=C(N)N)c2cc1OC [Example 12] | ≤ 8 |  |
